From patent publication US10981899B2, “Inhibitors of soluble adenylyl cyclase” (CORNELL UNIVERSITY, priority 2016, dated 2021)

System: mouse sperm
Test: Sperm capacitation, hyperactivation and in vitro fertilization assays

Structure (SMILES): CC(Sc1nc2ccccc2[nH]1)C(=O)N/N=C/c1cc(Br)ccc1O (stereo not shown) [KH7]
- effect on sAC-dependent functions in sperm: blocked
